Assays:
Homo sapiens = species on record: Homo sapiens; assay: Selectivity ratio of IC50 for p38alpha (unknown origin) to IC50 for TGFbetaR1 (unknown origin)
MDR1 = assay: Efflux ratio of apparent permeability in dog MDCK-MDR1 cells at 2 uM measured over 150 mins by LC-MS/MS analysis; assay type: ADME, cell-based, Canis lupus familiaris
NIH3T3 = assay: Antiproliferative activity against mouse NIH/3T3 cells by celltitter-glo assay; assay type: functional, cell-based

| Ratio IC50 (Homo sapiens) | efflux ratio at 2.5 h, 2 µM (MDR1) | Compound | IC50 (NIH3T3) [nM] |
| --- | --- | --- | --- |
| 12.5 |  | Cc1cccc(-c2nn(Cc3cccc(C(F)F)c3)cc2-c2ccc3ncnn3c2/C=C/C(N)=O)n1 |  |
| > 120 |  | Cc1cccc(-c2nn3c(c2-c2ccc4ncnn4c2/C=C/C(C)(C)O)CCC3)n1 |  |
| 18.2 | 0.54 | CCOC(=O)/C=C/c1c(-c2c(-c3cccc(C)n3)nn3c2CCC3)ccc2ncnn12 | 1820 |

| Compound | Ratio IC50 (Homo sapiens) | efflux ratio at 2.5 h, 2 µM (MDR1) | IC50 (NIH3T3) [nM] |
| --- | --- | --- | --- |
| Cc1cccc(-c2nn3c(c2-c2ccc4ncnn4c2/C=C/C(N)=O)CCC3)n1 | 66.2 |  |  |
